Source: IntAct's records for PubMed 19131971

B1: Myc proto-oncogene protein (Homo sapiens), P01106 (parent)
chain: MDFFRVVENQQPPATMPLNVSFTNRNYDLDYDSVQPYFYCDEEENFYQQQQQSELQPPAPSEDIWKKFELLPTPPLSPSRRSGLCSPSYVAVTPFSLRGDNDGGGGSFSTADQLEMVTELLGGDMVNQSFICDPDDETFIKNIIIQDCMWSGFSAAAKLVSEKLASYQAARKDSGSPNPARGHSVCSTSSLYLQDLSAAASECIDPSVVFPYPLNDSSSPKSCASQDSSAFSPSSDSLLSSTESSPQGSPEPLVLHEETPPTTSSDSEEEQEDEEEIDVVSVEKRQAPGKRSESGSPSAGGHSKPPHSPLVLKRCHVSTHQHNYAAPPSTRKDYPAAKRVKLDSVRVLRQISNNRKCTSPRSSDTEENVKRRTHNVLERQRRNELKRSFFALRDQIPELENNEKAPKVVILKKATAYILSVQAEEQKLISEEDLLRKRREQLKHKLEQLRNSCA

Variants of: B1
Settings: with axin1_human AXIN1
With S77D the “effect of a mutation on the interaction” value was “increasing interaction”.

Variants of: B1
Settings: with axin1_human AXIN1
Remark: another data set of the same source
With S77A the “effect of a mutation on the interaction” value was “disrupting interaction”.

Variants of: B1
Settings: with axin1_human AXIN1
Remark: another data set of the same source
T73A was tested, and the “effect of a mutation on the interaction” value was “increasing interaction”.
